Earlier results on 2 compounds are cited in US8392166B2.

The term Ki denotes a measure of affinity in units of concentration, obtained from inhibition or displacement.

For the data set, the target named is Thrombin (Homo sapiens, UniProt P00734). As to conditions: for Ki: Thrombin inhibitors, FIG. 1.

Consider `CN1C(c2ccc(C(=N)N)cc2)C2C(=O)N(Cc3ccc4c(c3)OCO4)C(=O)C2C1(C)C` (stereo not drawn), for which the Ki was 0.5 µM. Also, the biological activity result (experimentally determined, with respect to the reference compound) is listed as “improved”.
In the case of `CN1C(c2ccc(C(=N)N)cc2)C2CN(Cc3ccc4c(c3)OCO4)C(=O)C2C1(C)C` (stereo not drawn), the inhibitory constant (Ki) is 0.2 µM.
